The source of these data is PubChem BioAssay AID2177 (The Scripps Research Institute Molecular Screening Center, 2009).

Protein sequences, listed by entry. Tags and fused reporters are not part of them. Lines headed by an entry give the natural chain unless they say otherwise; changes in a name come on top.
UniProt O95372: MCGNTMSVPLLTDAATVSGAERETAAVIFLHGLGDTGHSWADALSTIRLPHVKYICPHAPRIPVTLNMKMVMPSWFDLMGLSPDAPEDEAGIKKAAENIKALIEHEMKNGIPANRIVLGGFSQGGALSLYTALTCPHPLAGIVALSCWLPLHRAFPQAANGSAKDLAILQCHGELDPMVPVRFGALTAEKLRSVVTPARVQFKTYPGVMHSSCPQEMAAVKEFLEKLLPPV

SMILES strings stand for the structures. The list shows a part of the results, in another mix than the full data. Activity calls are given as the source filed them.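 The calls were made as follows: active = inhibition above the screen-wide mean plus 3 SD, limit set per campaign (cut at about 26% in these data); inactive = the rest.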

Broadly, the inhibition is the relative decrease from the control value, in per cent.

This experiment deals with Acyl-protein thioesterase 2 (Homo sapiens) (UniProt O95372). As to the kind of experiment: inhibition of human lysophospholipase 2 – biochemical, fluorescence polarization, FP-Rh probe ABPP, counter-screen for PME1 inhibitor project, primary screen (AID 2177).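 Also: 0% = LYPLA2 with DMSO and 100% = wells lacking LYPLA2 enzyme.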 To be noted: recombinant LYPLA2, FP-Rh probe fluorescence polarization; at 5.9 µM; stronger effect = higher value. Background: In fluorescence polarisation assays a small probe gives low polarisation when free and higher when bound to something large.
For the compound `CN(C(=O)Cc1ccc(Cl)c(Cl)c1)[C@@H]1CCCC[C@H]1N1CCCC1`, the inhibition is inactive: -2.78%.
The value for `O=[As](O)(c1ccccc1Br)c1ccccc1Br` was inactive: -5.85%; that for `CC1(CBr)Cn2c(nc3ccccc3c2=O)S1` (centres undefined) was inactive: 2.98%.
The result for `COc1ccccc1CNC(=O)COC(=O)C(O)(c1ccccc1)c1ccccc1` reads inactive: -0.89%.
The value for `Clc1n[nH]nc1-c1nn[nH][15n]1` was inactive: -9.52%; that for `CC(C)(C)C(=O)NC(Sc1ncccn1)C(Cl)(Cl)Cl` (centres undefined) was inactive: 3.98%.
With `O=P1(Nc2ccccn2)COc2ccccc2OC1`, the inhibition is inactive: 0.9%.
The value for `CCC1=CC2Cc3nc4ccc(Cl)cc4c(N)c3C(C1)C2` (centres undefined) was inactive: -6.63%; that for `CCOP(=O)(NC(=NC(C)c1ccccc1)NC(C)c1ccccc1)OCC` (centres undefined) was inactive: -5.6%.
The value for `CCOP(=O)(Nc1ccc(C)cn1)OCC` was inactive: 2.86%; that for `CN(CCCl)Cc1cc(Cl)c(NC2=NCCN2)c(Cl)c1` was inactive: -4.56%.
With `Nc1cccc([As](=O)(O)c2ccccc2)c1`, the inhibition was inactive: -11%.
The value for `O=[As](O)(c1cccs1)c1cccs1` was inactive: 0.91%; that for `Cc1ccc(OCC(=O)OC2CN3CCC2CC3)cc1` (centres undefined) was inactive: 3.5%; that for `O=P1(Nc2ccc(Br)cn2)COc2ccccc2OC1` was inactive: 5.72%.
The result for `NS(=O)(=O)c1cccc(NC(=O)COC(=O)C(O)(c2ccccc2)c2ccccc2)c1` reads inactive: -8.23%.
The value for `O=P1(Nc2ncccn2)COc2ccccc2OC1` was inactive: -8.45%; that for `CN(C)C1(CNC(=O)c2ccc(S(C)(=O)=O)cc2)CCCCC1` was inactive: 5.86%; that for `O=C(/C=C/c1ccccc1)OC1CN2CCC1CC2` (centres undefined) was inactive: 5.94%.
As to `Cc1nn(-c2ccccc2)c2c1P(=O)(N1CCOCC1)N(C)C(c1ccccc1)=N2` (centres undefined), the inhibition is inactive: 4.59%.
With `CC1CCC(C(C)C)C(OP(=O)(Nc2ccccn2)c2ccccc2)C1` (centres undefined), the inhibition is inactive: 5.78%.
The value for `Cc1ccc(C(=O)OC2CN3CCC2CC3)cc1` (centres undefined) was inactive: 1.08%; that for `N#CCCN(C(=O)COC(=O)C(O)(c1ccccc1)c1ccccc1)c1ccc(F)cc1` was inactive: -2.81%.
In the case of `CN(C(=O)Cc1ccccc1)[C@@H]1CC[C@]2(CCCO2)C[C@H]1N1CCCC1`, the inhibition is inactive: 7.14%.
The result for `CCOP1(=S)c2c(C)nn(CCC#N)c2N=C(c2ccc(F)cc2)N1C` (centres undefined) reads inactive: -3.12%; that for `O=[N+]([O-])c1ccc2c(c1)nnn2O`, inactive: 0.81%; that for `CN(C)C(=O)c1cc([N+](=O)[O-])cc2c1-c1c(cc([N+](=O)[O-])cc1[N+](=O)[O-])C2=O`, inactive: 22.5%.
The result for `CN(C(=O)Cc1ccc(Cl)c(Cl)c1)[C@H]1CC[C@@]2(CCCO2)C[C@@H]1N1CCCC1` reads inactive: 2.49%.
The value for `NC(=O)Nc1ccc([As](=O)(O)O)cc1` was inactive: 5.77%; that for `Nc1ccccc1[As](=O)(O)c1ccccc1` was inactive: -5.34%.
For `O=C(O)COc1ccc([As](=O)(O)O)cc1[N+](=O)[O-]`, the inhibition was inactive: 2.63%.
The result for `CCOP1(=S)c2c(C)nn(CCC#N)c2N=C(c2ccccc2F)N1C` (centres undefined) reads inactive: 6.83%.
The result for `O=P(Nc1nccs1)(Oc1ccccc1)Oc1ccccc1` reads inactive: -1.3%; that for `O=P(Nc1nccs1)(c1ccccc1)c1nc2ccccc2s1` (centres undefined), inactive: -4.69%; that for `CS(=O)(=O)c1cc([N+](=O)[O-])c2no[n+]([O-])c2c1`, inactive: -3.73%.
The value for `COc1cc(C2NCCC3(OCCO3)C2(C)C)cc(OC)c1OC` (centres undefined) was inactive: -4.92%.
For the compound `CCOP(=O)(Nc1cccc2ccccc12)OCC`, the inhibition is inactive: 2.26%.
The value for `Nc1cccc2c([As](=O)(O)O)cccc12` was inactive: 20.6%.
The value for `Cc1ccc(NCCc2c([N+](=O)[O-])cc([N+](=O)[O-])cc2[N+](=O)[O-])cc1` was inactive: 11.2%.
For the compound `CCCOP(=S)(Nc1nc(N)cc(=O)[nH]1)OCCC`, the inhibition is inactive: -0.07%.
The value for `Cc1cccc(OCC(=O)OC2CN3CCC2CC3)c1` (centres undefined) was inactive: 5.8%; that for `O=[As](O)(c1cccc(O)c1)c1cccc(O)c1` was inactive: 4.88%; that for `O=C(OC1CN2CCC1CC2)c1ccc(Cl)cc1` (centres undefined) was inactive: 1.69%.
`O=[As](O)(O)c1cccnc1`: the inhibition is inactive: 4.17%.
Take `COc1cc(C(=O)NCC2(N3CCOCC3)CCCCC2)cc(Cl)c1OC(C)C`: the inhibition was inactive: 4.75%.
With `CS(=O)(=O)c1ccc(Cl)c(NC(=O)COC(=O)C(O)(c2ccccc2)c2ccccc2)c1`, the inhibition is inactive: 1.02%.
In the case of `CC(=O)Nc1ccc([As](=O)(O)O)c(O)c1`, the inhibition is inactive: 0.71%.
The value for `CC(=O)Nc1ccc(Oc2c([N+](=O)[O-])cc([N+](=O)[O-])cc2[N+](=O)[O-])cc1` was inactive: 2.46%; that for `Cc1ccccc1CN(C)C(=O)COC(=O)C(O)(c1ccccc1)c1ccccc1` was inactive: 0.98%; that for `C[C@H]1OP(=O)(Oc2ccccc2)C[C@@H]2O[C@@H]21` (some centres undefined) was inactive: -0.79%.
The value for `C[C@@H]1C=CCP(=O)(Oc2ccccc2)O1` (some centres undefined) was inactive: 3.68%; that for `CC(=O)c1ccc(N2CC2c2ccncc2)cc1` (centres undefined) was inactive: 5.78%; that for `CC(C)(C)C(=O)NC(Sc1ccccc1)C(Cl)(Cl)Cl` (centres undefined) was inactive: 6.56%.
The value for `O=P1(Nc2nc3ccc(Cl)cc3s2)COc2ccccc2O1` (centres undefined) was inactive: -3.27%.
Consider `CCOc1ccc(C2=NCC(CBr)S2)cc1` (centres undefined), for which the inhibition was inactive: -2.95%.
Consider `Cc1ccccc1OP(=O)(Nc1ccccn1)Oc1ccccc1C`, for which the inhibition was inactive: 5.77%.
Consider `CN(C)C(=O)Oc1noc2ccccc12`, for which the inhibition was inactive: -5.5%.
The result for `O=C(OC1CN2CCC1CC2)c1ccccc1` (centres undefined) reads inactive: -5.82%; that for `CCC(=O)N1C2C3N(C(=O)CC)C1C1N(C(=O)CC)C(C(N1C(=O)CC)N3C(=O)CC)N2C(=O)CC`, inactive: 3.16%.
